{
  "source": "patent US12201630B2",
  "about": "(Alar Pharmaceuticals Inc., priority 2018, dated 2025)",
  "origin": "cited, not measured here",
  "conditions": "transdermal delivery through skin sample, in vitro diffusion",
  "data": [
    {"substance": "valeroyl-naltrexone", "values": [
      {"measurement": "Increase in naltrexone cumulative amount versus naltrexone", "result": "eight-fold"}
    ]}
  ]
}
